We go through one molecule from patent US20240174690A1, “ANNULATED 2-AMINO-3-CYANO THIOPHENES AND DERIVATIVES FOR THE TREATMENT OF CANCER” (BOEHRINGER INGELHEIM INTERNATIONAL GMBH, priority 2021, published 2024).

Each structure is given as a SMILES string.

One data set deals with SK-CO-1 cells. Nature of the data set: SK-CO-1 CTG proliferation assay (120 h) (CRC, G12V). Conditions: read-out: SK-CO-1 IC50; SK-CO-1 cells (CRC, G12V), CTG 120 h. The method, then: SK-CO-1 CTG Proliferation Assay (120 h) (CRC, G12V)
(§1) SK-CO-1 cells (ATCC HTB-39) are dispensed into 384-well plates, flat and clear bottom (Greiner, PNr. 781091) at a density of 500 cells per well in 60 μL EMEM (Sigma M5650)+10% Fetal Calf Serum (HyClone, PNr.: SH30084.03) and incubated at 37° C. in a CO2 incubator overnight. The next day, compounds (10 mM stock in DMSO) are added with the ECHO acoustic liquid handler system (Beckman Coulter), including DMSO controls. Plates are incubated for 120 h, and cell viability is measured using CellTiter-Glo luminescent cell viability reagent (Promega product code G7570). Viability (stated as percent of control) is defined as relative luminescence units RLU of each well divided by the RLU of cells in DMSO controls. IC50 values are determined from viability measurements by non-linear regression using a four-parameter model.

For another data set, the system named is AsPC-1 cells. Briefly: AsPC-1 CTG proliferation assay (120 h) (pancreatic cancer, G12D). The settings on record: read-out: AsPC-1 IC50. The method, then: AsPC-1 CTG Proliferation Assay (120 h) (Pancreatic Cancer, G12D)
The CTG assay is designed to measure quantitatively the proliferation of AsPC-1 cells (ATCC […]), using the CellTiter Glow Assay Kit (Promega G7571). Cells are grown in RPMI medium (ATCC) supplemented with Fetal Calf Serum (Life Technologies, Gibco BRL, Cat. No. 10270-106). On “day 0” 2000 AsPC-1 cells are seeded in 60 μL RPMI ATCC+10% FCS+Penstrep in a 384-well plate, flat and clear bottom (Greiner, PNr. 781091). Cells are then incubated in the plates at 37° C. in a CO2 incubator overnight. On day 1, compounds (10 mM stock in DMSO) are added with the ECHO acoustic liquid handler system (Beckman Coulter), including DMSO controls. Plates are incubated for 120 h, and cell viability is measured using CellTiter-Glo luminescent cell viability reagent (Promega product code G7570). Viability (stated as percent of control) is defined as relative luminescence units RLU of each well divided by the RLU of cells in DMSO controls. IC50 values are determined from viability measurements by non-linear regression using a four-parameter model.

Data set [1] in a line: Solubility measurement (DMSO solution method), McIlvaine buffer pH 4.5 or 6.8. Conditions: DMSO stock diluted to 250 μM, 24 h shaking at ambient temperature. As for the experimental part:
A 10 mM DMSO stock solution of a test compound is used to determine its aqueous solubility. The DMSO solution is diluted with an aqueous medium (Mcllvaine buffer with pH=4.5 or 6.8) to a final concentration of 250 μM. After 24 h of shaking at ambient temperature a potentially formed precipitate is removed by filtration. The concentration of the test compound in the filtrate is determined by LC-UV methods by calibrating the signal to the signal of a reference solution with complete dissolution of the test compound in acetonitrile/water (1:1) with known concentration.

For a further data set, the system named is LOVO cells. Briefly: LOVO CTG proliferation assay (120 h) (CRC, G13D). The settings on record: read-out: LOVO IC50, CTG 120 h. As for the experimental part: LOVO CTG Proliferation Assay (120 h) (CRC, G13D)
as §1, with “LOVO” for “SK-CO-1”, “CCL-229)” for “HTB-39)”, “1000” for “500”, “DMEM” for “EMEM”, “D6429)+10%” for “M5650)+10%”

The nature of data set [2]: Metabolic (microsomal) stability assay, human liver microsomes (HLM). Conditions: predicted clearance as percent of liver blood flow, 1 μM. As for the experimental part:
The metabolic degradation of the test compound is assayed at 37° C. with pooled liver microsomes (mouse (MLM), rat (RLM) or human (HLM)). The final incubation volume of 48 μL pertime point contains TRIS buffer (pH 7.5; 0.1 M), magnesium chloride (6.5 mM), microsomal protein (0.5 mg/mL for mouse/rat, 1 mg/mL for human specimens) and the test compound at a final concentration of 1 μM. Following a short preincubation period at 37° C., the reactions are initiated by addition of 12 μL beta-nicotinamide adenine dinucleotide phosphate, reduced form (NADPH, 10 mM) and terminated by transferring an aliquot into solvent after different time points (0, 5, 15, 30, 60 min). Additionally, the NADPH-independent degradation is monitored in incubations without NADPH, terminated at the last time point by addition of acetonitrile. The quenched incubations are pelleted by centrifugation (4,000 rpm, 15 min). An aliquot of the supernatant is assayed by LC-MS/MS to quantify the concentration of parent compound in the individual samples.
In vitro intrinsic clearance (CLint, in vitro) is calculated from the time course of the disappearance of the test drug during the microsomal incubation. […]
For better across species comparison the predicted clearance is expressed as percent of the liver blood flow [% QH] […]

Take `Cc1ccncc1-c1cn(-c2cc(O[C@@H](C)[C@@H]3CCCN3C)nc(-c3noc4c3CCC[C@@]43CCCc4sc(N)c(C#N)c43)n2)nn1`: the IC50 is 62 nM with SK-CO-1 cells, 1320 nM with AsPC-1 cells and 323 nM with LOVO cells. Besides, in data set [1] (McIlvaine buffer pH 4.5), the “solubility pH 4.5” value was <1 μg/ml. In addition, in data set [1] (McIlvaine buffer pH 6.8), the “solubility pH 6.8” value is listed as <1 μg/ml. Further, the “HLM QH” value in data set [2] was <24%.

The term IC50 denotes the concentration that gives 50% inhibition.
